This series is described as follows: Skin sensitization test according to Local Lymph Node Assay (LLNA) method, Stimulation Index (SI). To be noted: LLNA method (OECD test guideline 429), SI less than 3 = no skin sensitization problem.

Consider “Ethylene oxide-modified bisphenol A diacrylate”, for which the SI value result is listed as “Ethylene oxide-modified bisphenol A diacrylate (SI value = 1.2):”.

Take “Polyethoxylated tetramethylol methane tetraacrylate”: the SI value result is listed as “KOGYO SEIYAKU CO., LTD., SI Value = 1.7):”.

On to “Propylene oxide modified neopentyl glycol diacrylate”, for which the SI value result is recorded as “SI value: 3.7):”.

Source of the values: patent publication US8926083B2, “Polymerizable ink composition, ink cartridge, and inkjet printer” (Ricoh Company, Ltd., priority 2012, dated 2015).
